Tested on: HBV (HBVcircle transfected HepaRG cells)
Experiment: In vitro anti-HBV drug evaluation in HBVcircle transfected proliferating HepaRG cells
Format: cell-based
Details: 6 days
Experimental: X-TREMEGENE HP DNA transfection reagent (from Roche) was used for transfection. One day before transfection, cells were trypsinized and seeded onto plates, Cells were seeded at 0.8×10^5/well in 24 well plates for HepG2 and proliferation HepaRG cell line, and 3×10^5/well in 24 well plates for differentiated HepaRG cell line.
HBeAg or HBsAg were measured by using the HBeAg or HBsAg ELISA kit (from Autobio) according to the manufacturer's direction.
Next, the feasibility of evaluating anti-HBV drugs using HBVcircle system in cell culture models was assessed. HepG2 cells or proliferating HepaRG cells were transiently transfected with HBVcircle and then treated with indicated concentrations of ETV, HAP 12 (an HBV capsid assembly inhibitor, which belongs to heteroaryldihydropyrimidine (HAP) chemical series, and was published as Example 12 in Bourne et al., J Virol. October 2008; 82(20): 10262-10270) or Pegasys for 6 days. Supernatants were collected and HBsAg, HBeAg and albumin ELISA were performed. Cells were lysed and cell lysates were subjected to southern blot analysis for encapsidated HBV DNA detection, as well as western blot analysis for HBV capsid, HBc and beta-actin detection with specific antibodies respectively.

## pegylated interferon alpha-2a [Pegasys]
  HBeAg production: inhibited dose dependently
  HBsAg production: inhibited dose dependently
